Assay results from patent US20010013317A1, “Medium for coloring live bait worms” (priority 1999, published 2001).

Assay: Solubility of colorant in water
Settings: at 25° C.

O=C([O-])c1c(Cl)c(Cl)c(Cl)c(Cl)c1-c1c2cc(Br)c(=O)c(Br)c-2oc2c(Br)c([O-])c(Br)cc12.[Na+].[Na+] [D & C Red 28]
Solubility in water: 9000 µg/mL
